Literature values as cited in US20040235801A1, “Therapy for stroke” (priority 2001, published 2004).

Experiments:
[1] = system: SOD1 mutant mice; conditions: single therapy, without affecting the onset of disease; cited from earlier work
[2] = system: ALS patients; conditions: two controlled clinical trials; cited from earlier work

**Q.** What does the source list for `Nc1nc2ccc(OC(F)(F)F)cc2s1` [Riluzole]?
**A.** increase of survival [1]: 13 to 15 days; increase of survival of ALS patients [2]: 3-6 months
